Compound activity (PubChem BioAssay)
The list is not random: actives were taken first. Their share in the collection is about 16%.
TDP1 inh = TDP1 (human) enzyme inhibition; Q9NUW8; recombinant TDP1, AlphaScreen DNA substrate cleavage; Potency, µM (series often up to 130 µM), actives largely listed as inhibitors; 350,000 tested, 0.28% active; AID 485290; further: nearly all actives have a fitted effect of over 40% in size
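Here, a 5' biotin and 3' phosphotyrosine-FITC DNA oligonucleotide reports Tdp1 activity: intact substrate bridges AlphaScreen beads, while cleavage leaves a 3' phosphate and drops signal. All incubations at room temperature.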
TDP1 cell CPT = growth inhibition of DT40 Tdp1-/-;hTDP1 cells with camptothecin (screen for TDP1 inhibitors); AID 686979; Potency, µM (series often up to 46.2 µM), most hits filed as inhibitors; 420,000 tested, 12% active; chicken DT40 Tdp1-/-;hTDP1 cells + 20 nM CPT, ATP luminescence, 48 h; further: nearly all actives have a fitted effect of over 55% in size
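Chicken DT40 Tdp1-/- cells complemented with human TDP1, 400 cells/well, exposed to compounds plus 20 nM camptothecin for at least 48 h at 37 C; viability read as ATP content by CellTiter-Glo luminescence.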
DT40 TDP1 no CPT = qHTS for Inhibitors of human tyrosyl-DNA phosphodiesterase 1 (TDP1): qHTS in cells in absence of CPT | DT40 Tdp1-/- hTDP1 cells, no CPT, ATP luminescence, 48 h | Potency, µM (highest dose often 46.2 µM), actives largely listed as inhibitors | 420,000 tested, 15% active | AID 686978, 2013; further: nearly all actives have a fitted effect of over 55% in size
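Chicken DT40 Tdp1-/- cells stably complemented with human TDP1 were seeded at 400 cells/well with DMSO in place of 20 nM camptothecin. After compound pinning, cells grew at least 48 hr at 37 °C; viability read by CellTiter-Glo luminescence.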
miR-21 FLuc = miR-21 reporter, rising signal. HeLa miR-21 FLuc reporter, luciferase, 48 h. Potency, µM (highest dose often 38.3 µM). 340,000 tested, under 10 active. AID 2288; active = well fitted rising curve with a large enough effect; inconclusive = small, poorly fitted or top-dose-only effect; inactive = no such curve, though single readings can be large or run the other way;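 further: miR-21 action dims this reporter so a rising signal means less miR-21 action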
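Luminescence from a firefly luciferase reporter carrying a miR-21 binding site downstream, stably expressed under a CMV promoter in HeLa cells that make miR-21 endogenously, reports miRNA modulation after 48 h compound exposure up to approximately 40uM final.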
uPA generation = blocks generation of uPA at the cell surface | cell surface uPA generation assay, qHTS | Potency, µM (titrated, usually from 38.3 µM), usual class: inhibitors | 330,000 tested, 0.31% active | AID 540303; active means well fitted inhibition curve with a large enough effect; inconclusive means small, poorly fitted or top-dose-only effect; inactive means no such curve, though single readings can be large or run the other way; tested in mouse RAW 264.7 cells; further: nearly all actives have a fitted effect of over 55% in size
A number is an active result; n = inactive; u = inconclusive; x = no result given; [ ] = another dose, or the depositor's remark. Unless noted, the call rests on the fitted dose curve; in most records, active means well fitted curve in the direction sought with a large enough effect; inconclusive means small, poorly fitted or top-dose-only effect, or another doubt; inactive means no such curve, though single readings can be large; an effect the other way counts as inactive or inconclusive.

SMILES	TDP1 inh	TDP1 cell CPT	DT40 TDP1 no CPT	miR-21 FLuc	uPA generation
COC(=O)c1ccc(-n2c(/C=C\c3cccc(Br)c3)nc3ccccc3c2=O)cc1	n	5.17µM	2.91µM	n	x
COC(=O)c1ccc(-n2c(/C=C/c3cc(OC)c(OC)c(OC)c3)nc3cc(Cl)ccc3c2=O)cc1	n	18.4µM	14.6µM	n	x
O=C(Nc1ccc(F)cc1C(F)(F)F)C1CCN(c2ncccn2)CC1	n	n	n	n	x
O=C(COC(=O)c1ccccc1Br)NCc1ccccc1	n	n	n	n	n
C=CCn1c[n+](CC(=O)c2ccc(Br)s2)c2ccccc21	n	20.6µM	11.6µM	n	n
O=C(c1ccc(Br)s1)N1CCN(C/C=C/c2ccccc2)CC1	n	u	u	n	x
Cc1occc1C(=O)Nc1cccc(-c2nc(CNC(=O)c3ccc4ccccc4n3)c(C)o2)c1	x	8.2µM	6.51µM	x	x
CSc1nc(C(=O)NCc2nc(-c3cccc(NC(=O)c4ccccn4)c3)oc2C)cs1	x	n[9.04 µM]	u	x	x
Cc1nc(C)c(C(=O)NCc2nc(-c3cccc(NC(=O)c4ccccn4)c3)oc2C)s1	x	3.26µM	2.91µM	x	x
CSc1ccccc1C(=O)NCc1nc(-c2cccc(NC(=O)c3ccoc3C)c2)oc1C	x	u	20.6µM	x	x
COC(=O)c1cccc(C(=O)NCc2nc(-c3cccc(NC(=O)c4ccoc4C)c3)oc2C)c1	x	n[9.04 µM]	20.6µM	x	x
Cc1cc(C(=O)Nc2cccc(-c3nc(CNC(=O)c4cc5ccccc5[nH]4)c(C)o3)c2)c(C)o1	x	n	n	x	x
CN(c1ccc(OC(=O)CN2C(=O)NC3(CCCC3)C2=O)cc1)S(=O)(=O)c1ccccc1	x	n	n	x	n
CN(C(=O)c1ccc(Br)o1)C1CCS(=O)(=O)C1 (stereo unspecified)	x	n	n	n	n
C[n+]1c(-c2ccccc2)cc2c(=Cc3ccccc3)c3ccccc3n21	x	0.517µM	0.517µM	x	n
CN(C)c1ccc(C=c2c3cc(O)ccc3n3c2cc(-c2ccccc2)[n+]3C)cc1	x	7.31µM	u	x	n
C[n+]1c(-c2ccccc2)cc2c(=Cc3ccc([N+](=O)[O-])cc3)c3ccccc3n21	x	1.84µM	4.11µM	x	n
O=[N+]([O-])c1ccc(C=CC=Cc2ccccc2)cc1	x	n	u	x	x
CC1(C)Cc2nc(NC3CCCCC3)c(C#N)cc2CO1	n	u	23.1µM	n	n
COc1cc2c[n+](C)c3c4ccccc4ccc3c2cc1OC	x	1.03µM	1.46µM	x	n
COc1ccc2c(c1)c[n+](C)c1c3cc(OC)c(OC)cc3ccc21	x	1.16µM	1.16µM	x	x
COc1ccc(Cc2c3cc(OC)c(OC)cc3cc[n+]2C)cc1OC	x	n	n	n	n
COc1ccc(N2C(=O)N(Cc3ccccc3F)c3ccccc3S2(=O)=O)cc1	n	x	x	n	x
C=C(C)c1cccc(C(C)(C)NC(=O)N2CCC(C)CC2)c1	n	18.4µM	u	n	n
CSCCC(NC(=O)c1ccco1)C(=O)NCC1CCCO1 (stereo unspecified)	n	n	3.26µM	x	n
SMILES	TDP1 inh	TDP1 cell CPT	DT40 TDP1 no CPT	miR-21 FLuc	uPA generation
COc1ccc(-c2nnc(SC(C(=O)c3c[nH]c4ccccc34)c3ccccc3)n2N)cc1OC (stereo unspecified)	n	u	u	n	n
N#C/C(C(=O)N1CCCCC1)=C1\Nc2ccccc2S1	n	n	u	n	n
Cc1ccc(NC(=S)/C(C#N)=C2/Nc3ccccc3S2)cc1	x	29.1µM	23.1µM	x	x
FC(F)(F)c1ccccc1-c1nccc(NCCN2CCOCC2)n1	x	n	n	x	x
Cc1ccc(C(=O)NCCn2cc(SCC(=O)N3CCOCC3)c3ccccc32)cc1	n	u	u	n	n
Cc1cc(C)c(-n2c(C)cc(/C=C3/NC(=O)NC3=O)c2C)c(C)c1	n	u	14.6µM	n	n
Cc1cccc(-n2c(C)cc(/C=C3\NC(=O)NC3=O)c2C)c1	n	u	u	n	n
FC(F)(F)c1cccc(CN2CCN(c3ncccn3)CC2)c1	x	n	n	x	n
CCc1nc(CN2CCN(c3cc(C(F)(F)F)ccn3)CC2)c(C)[nH]1	x	23.1µM	16.4µM	n	n
CCOc1ccc(S(=O)(=O)N2CCC(C(=O)OC(C)C(=O)NC3CCCCC3C)CC2)cc1 (stereo unspecified)	n	n	u	x	n
Cn1nc(-c2ccc(C(=O)Nc3ccc(F)cc3)cc2)c2ccccc2c1=O	n	u	u	n	n
Cc1ccc(-c2nn(CC(=O)NCc3cc(-c4nn(C)c(=O)c5ccccc45)ccc3C)c(=O)c3ccccc23)cc1	n	14.6µM	13µM	n	n
Cc1ccc(NC(=O)c2ccc(-c3nn(C)c(=O)c4ccccc34)cc2)cc1	n	20.6µM	u	n	n
CCn1c(-c2ccc[nH]c2=O)nc2ccccc21	x	n	n	n	n
O=c1[nH]cccc1-c1nc2ccccc2n1Cc1ccccc1F	x	20.6µM	29.1µM	n	n
CCOc1ccccc1NC(=O)CCn1c(-c2ccc(OC)cc2)cc(C(C)=O)c1C	n	u	u	n	x
COc1ccc(-c2cc(C(C)=O)c(C)n2CCC(=O)Nc2cc(Cl)ccc2C)cc1	n	20.6µM	18.4µM	n	x
COc1ccc(-c2cc(C(C)=O)c(C)n2CCC(=O)NC2CCCCC2)cc1	n	23.1µM	u	n	x
COc1ccc(-c2cc(C(C)=O)c(C)n2CCC(=O)Nc2ccc(C)c(Cl)c2)cc1	n	14.6µM	18.4µM	n	x
COc1ccc(-c2cc(C(C)=O)c(C)n2CCC(=O)Nc2cccc(C)c2C)cc1	n	u	u	n	x
CN(C)S(=O)(=O)c1cc(NC(=O)COC(=O)C2COc3ccccc3O2)ccc1Cl (stereo unspecified)	n	n	n	n	n
CC(=O)NCCNc1nc2c(S(=O)(=O)c3ccc(C)c(C)c3)nnn2c2ccc(Cl)cc12	n	u	u	n	x
COc1ccc(-n2cc(C(=O)NCc3cccc(OC)c3)c3ccccc3c2=O)cc1	n	n	u	n	x
COc1ccc(NC(=O)CC2Sc3ncnn3C2=O)cc1 (stereo unspecified)	n	5.17µM	11.6µM	n	n
COCCN1C(=O)C(CC(=O)Nc2ccccc2)SC1=Nc1ccc(OC)cc1 (stereo unspecified)	n	n	n	n	n
CCOC(=O)c1ccc(NC(=O)CN2C(=O)C(C)SC(C)C2=O)cc1 (stereo unspecified)	n	n	n	n	n
CCOC(=O)c1ccc(NC(=O)CC2Sc3ncnn3C2=O)cc1 (stereo unspecified)	x	5.8µM	6.51µM	n	n
COc1ccc(OC)c(NC(=O)CCOc2cccc(C)c2)c1	n	u	u	n	n
C=C1C[C@H]2[C@@H]3CCc4cc(OC)ccc4[C@H]3CC[C@]12C	n	n	n	x	n
C=C(C)COc1ccc2c(c1)CCC1C2CCC2(C)C(=O)C(=NO)CC12 (stereo unspecified)	x	16.4µM	u	x	n
